The results in this text go back to patent US12583846B2, “2H-benzopyran derivatives as CRAC inhibitors” (CISEN PHARMACEUTICAL CO., LTD, priority 2019, dated 2026).

Chains of the proteins cited; added tags and fusions are not shown. Residues count along the entry.
UniProt Q5M848, whole entry: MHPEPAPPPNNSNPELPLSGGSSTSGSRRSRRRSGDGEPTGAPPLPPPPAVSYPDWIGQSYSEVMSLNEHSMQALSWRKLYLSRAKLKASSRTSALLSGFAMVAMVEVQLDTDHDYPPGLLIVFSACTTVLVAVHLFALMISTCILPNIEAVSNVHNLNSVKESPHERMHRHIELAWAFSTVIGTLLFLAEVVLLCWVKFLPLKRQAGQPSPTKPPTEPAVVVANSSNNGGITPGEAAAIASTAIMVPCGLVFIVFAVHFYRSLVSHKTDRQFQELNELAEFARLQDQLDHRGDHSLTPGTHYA
UniProt P84903, 23-685 partner limits assumed: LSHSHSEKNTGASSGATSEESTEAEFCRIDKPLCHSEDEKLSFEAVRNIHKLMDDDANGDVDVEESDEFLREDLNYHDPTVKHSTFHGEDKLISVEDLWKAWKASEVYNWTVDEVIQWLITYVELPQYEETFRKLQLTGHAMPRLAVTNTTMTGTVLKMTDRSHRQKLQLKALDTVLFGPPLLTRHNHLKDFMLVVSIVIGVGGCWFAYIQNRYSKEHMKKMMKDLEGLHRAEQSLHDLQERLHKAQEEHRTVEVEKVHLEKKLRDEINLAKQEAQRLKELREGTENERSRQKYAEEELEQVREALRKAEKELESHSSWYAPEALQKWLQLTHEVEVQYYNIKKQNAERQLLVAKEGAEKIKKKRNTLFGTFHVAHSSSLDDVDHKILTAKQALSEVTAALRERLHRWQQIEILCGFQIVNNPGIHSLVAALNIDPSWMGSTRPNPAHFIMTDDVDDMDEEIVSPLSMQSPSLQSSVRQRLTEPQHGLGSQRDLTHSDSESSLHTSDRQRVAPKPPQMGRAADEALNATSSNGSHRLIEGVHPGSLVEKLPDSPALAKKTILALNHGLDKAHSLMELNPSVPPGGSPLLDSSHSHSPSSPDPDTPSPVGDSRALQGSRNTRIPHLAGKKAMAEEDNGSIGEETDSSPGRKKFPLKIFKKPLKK

Structures are written as SMILES.

Assay [1] deals with CRAC channel (Rattus norvegicus, UniProt Q5M848). As to the kind of experiment: CRAC in vitro cell activity test: inhibition of Ca2+ by FLIPR calcium flux assay in RBL-2H3 cells. Format: cell-based. As to conditions: read-out: IC50 for inhibition of Ca2+ by FLIPR assay, RBL-3H cell assay (RBL-2H3), thapsigargin. On the procedure:
1.3 Cell Strain: RBL-2H3, Derived from the HDB Cell Bank. 2. Experimental Procedure and Method: 2.1 Cell Plating • 1) Preparing a biosafety cabinet and preheating relevant reagents. Cells were observed daily and passaged until 85% area of the 10 cm culture dish was covered with cells. • 2) The cell culture dish was taken out and the culture medium was removed. The cell surface was washed with DPBS, and DPBS was then removed. The cells were digested with 1 mL of 0.25% Trypsin-EDTA for 1-3 minutes, and digestion was stopped by adding 2 mL of culture medium. A pipetting gun was used to gently blow cells until the cells fall off the surface of the culture dish. • 3) The cell density was adjusted to 15000 cells per well using growth culture medium in a volume of 25 μL culture medium per well. • 4) The cell culture plates were incubated to 80% density in an incubator at 37° C. and 5% CO2. […]
Data Processing: the collected signal results were analyzed and graphed using ScreenWorks, Excel, Xlfit. and GraphPad.
A general note: A change in cytosolic calcium serves as a functional read-out for many receptors and channels.

Assay [2] deals with IL-2. The assay is described as follows: Inhibitory activity on cytokines: IL-2 in supernatant of anti-CD3/anti-CD28 stimulated hPBMC by CBA method. The note with it: read-out: IL-2 IC50, anti-CD3/anti-CD28, 2 days incubation. On the procedure:
(§1) Human peripheral blood mononuclear cells (hPBMC); supplier: HemaCare; Article Number: PB009C-2
(§2) 96-well plates were coated with 5 μg/mL anti-human CD3 antibody (in DPBS) at […] overnight at 4° C.
(§3) PBMC were removed from liquid nitrogen and immediately placed in a 37° C. water bath for recovery. To a 15 mL centrifuge tube, 5 mL culture medium (RPMI1640 culture medium+10% fetal bovine serum+1% non-essential amino acids+1% penicillin streptomycin+0.05 mM β-mercaptoethanol) was added, and the cell suspension was pipetted to the centrifuge tube, and the mixture was centrifuged at 320 g for 5 minutes. The cells were resuspended with culture medium and counted, and the cell concentration was then adjusted to 5×10^5 cells/mL with the culture medium, To the cell suspension was added anti-human CD28 antibody (final concentration 2 μg/mL), and the mixture was inoculated into a 96-well plate at 200 μL/well.
(§4) Compounds were prepared at the desired concentration and added to the cells. The mixture was incubated at 37° C., 5% CO2 for 2 days.
(§5) The standards were prepared according to the instructions of IL-2 and TNFα Flex Set kit. […] The average fluorescence intensity of the PE channel was detected by flow cytometry. Based on the average fluorescence intensity of the standards, the contents of IL-2 and TNF-α of the samples were calculated.

Assay [3] relates to TNF-α. As to the kind of experiment: Inhibitory activity on cytokines: TNFα in supernatant of anti-CD3/anti-CD28 stimulated hPBMC by CBA method. As to conditions: read-out: TNF-α IC50, anti-CD3/anti-CD28, 2 days incubation. As for the experimental part: as §1, §2, §3, §4, §5

As for `O=C(Nc1ncc(-c2cc3oc(C4CC4)nc3cc2Cl)cn1)c1c(F)cncc1F`, the IC50 in assay [1] amounted to 124 nM; in assay [2], 201 nM; in assay [3], 303 nM.
